{
  "sequences": {"note": "By UniProt entry, the sequences of proteins in these tests, tags left out. Where a name states a change or a piece, a line headed by the entry shows the natural chain unless it says otherwise.", "UniProt P35375": "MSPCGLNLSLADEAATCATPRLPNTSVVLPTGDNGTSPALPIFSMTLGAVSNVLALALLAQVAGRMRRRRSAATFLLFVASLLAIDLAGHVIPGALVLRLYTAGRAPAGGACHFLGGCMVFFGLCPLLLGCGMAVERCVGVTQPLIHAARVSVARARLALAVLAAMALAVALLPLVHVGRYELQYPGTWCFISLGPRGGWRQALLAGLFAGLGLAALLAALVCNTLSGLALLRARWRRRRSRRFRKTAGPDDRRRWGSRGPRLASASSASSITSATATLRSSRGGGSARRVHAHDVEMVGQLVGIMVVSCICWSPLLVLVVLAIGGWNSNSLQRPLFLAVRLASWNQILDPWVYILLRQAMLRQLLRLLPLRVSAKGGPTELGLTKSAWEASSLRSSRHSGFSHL"},
  "source": "patent US9181187B2",
  "about": "“Therapeutic agent for urinary excretion disorder” (ONO PHARMACEUTICAL CO., LTD., priority 2007, dated 2015)",
  "molecular_target": "mouse EP1 receptor (Mus musculus (Mouse), UniProt P35375)",
  "test": "Measurement of EP1 Antagonist Activity (inhibition of PGE2-induced increase in intracellular calcium)",
  "format": "cell-based",
  "conditions": "cells expressing mouse EP1 receptor; increase in intracellular calcium induced by PGE2 (100 nM)",
  "experimental": "The cells expressing mouse EP1 receptor were seeded at 10^4 cells/well in 96-well plates and cultured for 2 days with 10% Fetal Bovine Serum (FBS)/alpha Modified Eagle Medium (αMEM) in the incubator (37° C., 5% CO2). The cells were washed with phosphate buffer, and load buffer (10% FBS/αMEM containing Fura2/AM (5 μM), indomethacin (20 μM) and probenecid (2.5 mM)) was then added to each well and cells were left standing for 1 hour. Load buffer of each well was discarded and assay buffer (Hank's Balanced Salt Solution (HBSS) containing indomethacin (2.5 mM), probenecid (2.5 mM), HEPES-NaOH (10 mM) and 0.1% (w/v) Bovine Serum Albumin (BSA)) was added to each well and plates were left at room temperature in a dark room for 1 hour. Afterwards, compounds of the present invention (10 μL) or PGE2 (10 μL) prepared with assay buffer was added to each well and intracellular calcium concentrations were measured using a Fluorescence Drug Screening System (FDSS-4000, Hamamatsu Photonics K.K.). Changes in ratio of fluorescent intensity at 500 nm in cells exposed to alternating 2 excitation wavelengths was monitored as changes in intracellular calcium concentrations.\nIC50 values were calculated based on the response inhibition rate of increase in intracellular calcium concentrations induced by PGE2 (100 nM) and was used as an index of EP1 antagonistic activity.",
  "data": [
    {"compound": "Cc1csc(S(=O)(=O)N(CC(C)C)c2cc3c(cc2OCc2ccc(C(=O)O)cc2)CCC3)n1", "note": "[Compound B, 4-[6-[N-isobutyl-N-(4-methyl-2-thiazolylsulfonyl)amino]indan-5-yloxymethyl]benzoic acid]", "values": [
      {"measurement": "IC50", "value": 9.3, "unit": "nM"}
    ]}
  ]
}
